Reference: EP0384421A2, “Use of PAF antagonists in the treatment of pathologic changes of the blood gas” (BOEHRINGER INGELHEIM KG, priority 1989, dated 1990)

System: Methylparathion
Conditions: Methylparathion 20 mg/kg po 15 Min., no treatment; rats, mean of 6-15

For COP(=S)(OC)Oc1ccc([N+](=O)[O-])cc1 [Methylparathion, reference compound], the PCO2 was 97,7, the PO2 was 20,6 and the pH was 7,08.
